Reference: PubChem BioAssay AID1894 (NMMLSC, 2009)
This is a selection; strong and weak results do not stand in their true shares. The source made the active and inactive calls.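 Rule for the calls: active = binding response below 72% of control, or above a set upper limit, though filed actives all read lower; inactive = the rest.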

Chains of the proteins cited; added tags and fusions are not shown. Lines headed by an entry give the natural chain unless they say otherwise; changes in a name come on top.
UniProt Q99759: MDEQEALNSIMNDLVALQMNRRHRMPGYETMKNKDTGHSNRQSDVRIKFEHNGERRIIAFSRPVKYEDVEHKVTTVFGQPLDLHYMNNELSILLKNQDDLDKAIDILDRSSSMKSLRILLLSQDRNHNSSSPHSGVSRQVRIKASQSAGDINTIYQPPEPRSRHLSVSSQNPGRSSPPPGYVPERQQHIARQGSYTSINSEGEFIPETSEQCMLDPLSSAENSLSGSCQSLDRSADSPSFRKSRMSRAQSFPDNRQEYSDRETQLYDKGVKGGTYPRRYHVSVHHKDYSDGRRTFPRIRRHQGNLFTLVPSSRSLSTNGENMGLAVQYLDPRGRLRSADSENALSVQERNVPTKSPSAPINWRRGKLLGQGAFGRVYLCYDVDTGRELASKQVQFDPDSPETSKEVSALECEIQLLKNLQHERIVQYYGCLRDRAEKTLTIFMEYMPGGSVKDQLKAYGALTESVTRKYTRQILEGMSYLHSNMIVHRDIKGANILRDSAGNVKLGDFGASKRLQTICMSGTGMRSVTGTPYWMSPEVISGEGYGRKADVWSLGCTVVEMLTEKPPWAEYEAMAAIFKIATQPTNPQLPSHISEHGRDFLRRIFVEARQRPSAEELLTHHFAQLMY

Each compound was assayed against Mitogen-activated protein kinase kinase kinase 3 (Homo sapiens) (UniProt Q99759) (assay: MEKK3 wild-type PB1 binding to MEK5, inhibitors, confirmation, biochemical, bead multiplex flow cytometry, single concentration, wildtype (AID 1894;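 note: 100% = DMSO only wells and 0% = binding blocked by excess unlabeled MEK5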)). Conditions: Alexa488-MEK5 binding to MEKK3, at 10 µM, stronger effect = lower value.

SMILES	binding response (% of control)
CN(CCCl)Cc1cc(Cl)c(NC2=NCCN2)c(Cl)c1	inactive: 99%
CCC1=CC2Cc3nc4ccc(Cl)cc4c(N)c3C(C1)C2 (configuration not stated)	inactive: 103%
